This passage reports Ki results from ChEMBL document CHEMBL1144175 (Bioorg Med Chem, 2008).

Chains of the proteins cited; added tags and fusions are not shown.
UniProt P0DMS8, whole entry: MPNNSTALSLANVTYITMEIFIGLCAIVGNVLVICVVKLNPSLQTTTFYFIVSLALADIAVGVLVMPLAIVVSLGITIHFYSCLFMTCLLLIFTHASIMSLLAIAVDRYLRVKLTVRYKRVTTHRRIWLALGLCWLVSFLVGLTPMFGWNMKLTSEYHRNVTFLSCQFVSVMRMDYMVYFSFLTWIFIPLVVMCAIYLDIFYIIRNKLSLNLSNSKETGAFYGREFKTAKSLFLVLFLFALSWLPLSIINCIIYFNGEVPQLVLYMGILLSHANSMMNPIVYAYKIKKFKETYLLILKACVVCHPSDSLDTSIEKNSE

The target of the assay is Adenosine receptor A3 (Homo sapiens, UniProt P0DMS8).

Molecules are shown by their SMILES.

One may read the Ki as the dissociation constant of the complex between target and ligand, obtained from inhibition or displacement. Read a low Ki as tighter binding.

As for `O[C@@H]1[C@H](O)[C@@H]2C[C@@H]2[C@H]1n1cnc2c(NCc3cccc(Cl)c3)nc(Cl)nc21`, the inhibition constant (Ki) was 1.06 nM.
